The text below walks through data of US20160199524A1, “RADIOSENSITIVITY OF FLUOROPHORES AND USE OF RADIOPROTECTIVE AGENTS FOR DUAL-MODALITY IMAGING” (Immunomedics, Inc., priority 2015, published 2016).

This assay deals with PC-3 cells. In kind it is binding, human. The conditions noted are these: initial experiment, inhibitor range 56 to 0.44 nM. The method, then:
A NOTA-conjugated bombesin derivative (IMP468) was prepared as described above. We began testing its ability to block radiolabeled bombesin from binding to PC-3 cells as was done by Prasanphanich et al. (PNAS 104:12462-12467, 2007). Our initial experiment was to determine if IMP468 could specifically block bombesin from binding to PC-3 cells. We used IMP333 as a non-specific control. […] A range of 56 to 0.44 nM was used as our inhibitory concentrations.
This experiment was repeated using a commercially available BBN peptide. We increased the amount of inhibitory peptide from 250 to 2 nM to block the ^125I-BBN from binding to PC-3 cells.

Where a SMILES comes first, the peptide text is derived from it. The star is where a group is joined. NOTA = O=C(O)CN1CCN(CC(=O)O)CCN(CC(=O)*)CC1; Aoc = NCCCCCCCC(=O)O

For the compound `CSCC[C@H](NC(=O)[C@H](CC(C)C)NC(=O)[C@H](Cc1c[nH]cn1)NC(=O)CNC(=O)[C@@H](NC(=O)[C@H](C)NC(=O)[C@H](Cc1c[nH]c2ccccc12)NC(=O)[C@@H](NC(=O)[C@H](Cc1c[nH]c2ccccc12)NC(=O)CCCCCCCNC(=O)CN1CCN(CC(=O)O)CCN(CC(=O)O)CC1)C(C)C)C(C)C)C(N)=O` [IMP468] ({NOTA-Aoc}-WVWAVGHLM-NH2), the “block the binding of ^125I-BBN” value is recorded as “could block”.
